Molecular target: κ2 receptor
Assay: Displacement of [^3 H]BRM (bremazocine), κ2 receptor binding, guinea pig brain membranes depleted of μ and δ sites
Settings: [^3 H]bremazocine; read-out: Kd of radioligand

Q: For `CCC12CCN(CC3(O)CC3)C(Cc3ccc(O)cc31)C2(C)C` (stereo not shown) [[^3 H] BRM, reference compound], which Kd is on record?
A: Its Kd is 1 nM.
